# Data as given in the OPERA property sets (Mansouri et al. 2018).
# Conditions: experimental values compiled from the literature
SMILES,log10 vapour pressure (mmHg),melting point [°C],boiling point [°C],log10 Henry constant (atm·m³/mol),ready biodegradability,log10 Koc (L/kg)
CCCOC(=O)Cl,1.3,–,–,–,–,–
O=C(Cl)OCCOC(=O)Cl,-1.67,–,–,–,–,–
O=[N+]([O-])OCCOCCO[N+](=O)[O-],-2.23,-11.3,–,–,–,–
CC(C)OP(=O)(F)OC(C)C,-0.237,-82,183,–,–,–
O=[N+]([O-])c1cccc([N+](=O)[O-])c1,-3.05,90,291,-7.31,not readily biodegradable,–
CCC(C)OC(=O)Cl (stereo not given),1.03,–,–,–,–,–
CO[N+](=O)[O-],–,-82.5,64.6,–,–,–
CC(O)C(C)(C)C (stereo not given),–,4.8,120,–,–,–
O=[N+]([O-])OCC(O)CO[N+](=O)[O-],–,26,–,–,–,–
CCOP(=O)(OCC)N(C)C,–,8.3,232,–,–,–
CC([N+](=O)[O-])[N+](=O)[O-],–,–,186,–,–,–
O=C(Cl)Oc1ccccc1,-0.249,–,–,–,–,–
COc1c([N+](=O)[O-])cc([N+](=O)[O-])cc1[N+](=O)[O-],–,69,–,–,–,–
O=C1c2cc([N+](=O)[O-])ccc2-c2c1cc([N+](=O)[O-])cc2[N+](=O)[O-],–,176,–,–,–,–
O=[N+]([O-])OC[C@@H](O[N+](=O)[O-])[C@@H](O[N+](=O)[O-])[C@H](O[N+](=O)[O-])[C@@H](CO[N+](=O)[O-])O[N+](=O)[O-],–,107,–,–,–,–
O=[N+]([O-])c1cc([N+](=O)[O-])c2c([N+](=O)[O-])cc([N+](=O)[O-])cc2c1,–,207,–,–,–,–
Cc1cc([N+](=O)[O-])ccc1[N+](=O)[O-],–,52.5,284,–,–,–
CCCO[N+](=O)[O-],1.37,-100,110,-2.9,–,–
C=CCOC(=O)Cl,1.3,–,–,–,–,–
Cc1cccc([N+](=O)[O-])c1[N+](=O)[O-],–,60,284,–,–,–
CN(C)CCCl,–,–,110,–,–,–
ClCCN(CCCl)c1ccccc1,–,45,–,–,–,–
CCOP(C)(=O)OCC,-1.88,–,194,–,–,–
O=[N+]([O-])c1ccc(O)c([N+](=O)[O-])c1O,–,148,–,–,–,–
Cc1ccc([N+](=O)[O-])c([N+](=O)[O-])c1[N+](=O)[O-],–,112,301,–,–,–
CCCCC(CC)CO[PH](=O)OCC(CC)CCCC (stereo not given),-4.24,–,–,–,–,–

SMILES,log10 vapour pressure (mmHg),melting point [°C],boiling point [°C],log10 Henry constant (atm·m³/mol),ready biodegradability,log10 Koc (L/kg)
Cc1c([N+](=O)[O-])cccc1[N+](=O)[O-],-3.25,66,300,–,–,–
O=[N+]([O-])c1ccccc1[N+](=O)[O-],-4.34,–,–,–,not readily biodegradable,–
CN(c1c([N+](=O)[O-])cc([N+](=O)[O-])cc1[N+](=O)[O-])[N+](=O)[O-],–,132,–,–,–,–
O=[N+]([O-])OCC(CO[N+](=O)[O-])(CO[N+](=O)[O-])CO[N+](=O)[O-],-8.26,140,–,–,–,–
CC([N+](=O)[O-])([N+](=O)[O-])[N+](=O)[O-],–,57,–,–,–,–
OCCF,1.33,–,–,–,–,–
CP(=O)(Oc1ccccc1)Oc1ccccc1,–,35,–,–,–,–
CC(C)N(CCO)C(C)C,-1.1,-39,190,–,–,–
CC(C)COC(=O)Cl,0.922,–,–,–,–,–
CC(C)OP(=S)(OC(C)C)SCCNS(=O)(=O)c1ccccc1,-6.1,–,–,–,–,3
O=[N+]([O-])c1cc([N+](=O)[O-])c(O)c([N+](=O)[O-])c1,-6.12,122,–,–,not readily biodegradable,–
Cl.Nc1cc([As](Cl)Cl)ccc1O,–,200,–,–,–,–
O=[N+]([O-])C(Br)([N+](=O)[O-])[N+](=O)[O-],–,17.5,–,–,–,–
CCO[N+](=O)[O-],1.81,-94.6,87.2,–,–,–
C1CN1,2.33,–,–,–,–,0.78
COC(=O)C(O)(c1ccccc1)c1ccccc1,–,75.8,–,–,–,–
CCP(Cl)Cl,–,–,112,–,–,–
C[AsH2],–,-143,2,–,–,–
Cc1ccc([N+](=O)[O-])cc1[N+](=O)[O-],-3.83,71,300,-7.27,not readily biodegradable,–
CCOP(=S)(CC)Sc1ccccc1 (stereo not given),-3.47,–,–,–,–,2.94
CC[AsH]CC,–,–,105,–,–,–
Cc1c([N+](=O)[O-])cc([N+](=O)[O-])c(C)c1[N+](=O)[O-],–,184,–,–,–,–
CCN(CC)CCCl.Cl,–,209,–,–,–,–
C[PH](=O)O,–,-40,163,–,–,–
Nc1c([N+](=O)[O-])c(N)c([N+](=O)[O-])c(N)c1[N+](=O)[O-],–,350,–,–,–,–
O=[N+]([O-])c1cc([N+](=O)[O-])cc([N+](=O)[O-])c1,-5.19,122,315,–,–,–
